Experiments:
[1] = biological target: human ETA-receptor (ET-receptor derived from phETIR) (human) (UniProt P25101); assay: cell-bound radioactivity, 50 pM 125I-ET-1 on COS-7 cells expressing the ETA-receptor, with 4×10^-7 M unlabeled ET-1
[2] = biological target: human ETA-receptor (ET-receptor derived from phETIR) (human) (UniProt P25101); assay: cell-bound radioactivity, 50 pM 125I-ET-1 on COS-7 cells expressing the ETA-receptor
[3] = biological target: human ETB-receptor (ET-receptor derived from pHETBR31 and pHETBR34) (human) (UniProt P24530); assay: displacement of 125I-ET-1 from COS-7 cells expressing the ETB-receptor
[4] = biological target: human ETA-receptor (ET-receptor derived from phETIR) (human) (UniProt P25101); assay: displacement of 50 pM 125I-ET-1 from COS-7 cells expressing the ETA-receptor

By UniProt entry, the sequences of proteins in these tests, tags left out. Chains listed by the source or under a name are the forms on record and can include a tag or linker. Residues count along the entry.
UniProt P25101, 21-427 limits assumed, form in doubt: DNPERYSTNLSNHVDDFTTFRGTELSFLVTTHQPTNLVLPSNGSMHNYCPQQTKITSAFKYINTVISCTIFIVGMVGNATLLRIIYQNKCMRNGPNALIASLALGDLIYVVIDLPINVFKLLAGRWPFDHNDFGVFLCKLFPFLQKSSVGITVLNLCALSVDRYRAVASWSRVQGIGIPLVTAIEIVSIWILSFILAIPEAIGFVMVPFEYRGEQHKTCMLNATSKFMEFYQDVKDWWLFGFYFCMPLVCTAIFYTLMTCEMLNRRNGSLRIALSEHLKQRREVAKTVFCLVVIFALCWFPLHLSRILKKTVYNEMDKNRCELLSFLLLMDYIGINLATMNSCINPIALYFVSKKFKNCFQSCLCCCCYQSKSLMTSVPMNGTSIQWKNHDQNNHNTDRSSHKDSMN
UniProt P24530, 27-442 limits assumed, form in doubt: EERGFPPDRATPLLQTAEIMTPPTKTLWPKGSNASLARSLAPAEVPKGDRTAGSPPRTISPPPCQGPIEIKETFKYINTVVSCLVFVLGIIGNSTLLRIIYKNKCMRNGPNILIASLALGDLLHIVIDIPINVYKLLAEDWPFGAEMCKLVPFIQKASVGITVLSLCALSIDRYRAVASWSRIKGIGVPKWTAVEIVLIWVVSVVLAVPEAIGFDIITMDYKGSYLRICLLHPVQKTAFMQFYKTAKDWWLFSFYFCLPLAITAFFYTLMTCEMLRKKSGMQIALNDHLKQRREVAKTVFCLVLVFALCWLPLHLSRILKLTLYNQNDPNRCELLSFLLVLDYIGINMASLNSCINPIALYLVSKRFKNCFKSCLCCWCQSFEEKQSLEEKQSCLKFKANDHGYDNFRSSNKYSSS

background binding in the presence of 4×10^-7 M ET-1 [1] [cpm] | total binding [2] [cpm] | IC50 [3] [nM] | IC50 [4] [nM] | Substance
150 | 6900 | – | – | 125I-labeled ET-1 (from UniProt P05305 53-73) (peptide)
– | – | 1 | 3 | Endothelin 1 (from UniProt P05305 53-73) (peptide)

From patent US20020082414A1
